Experimental data reported in patent US10563243B2, “Bioavailability of metal ions” (priority 2014, dated 2020).

System: mixture of Actinomyces viscosus, Lactobacillus casei, Streptococcus oralis, Fusobacterium nucleatum, and Veillnoella parvula
Assay: Zinc/copper bioavailability assay: bacterial viability by resazurin fluorescence, oral bacterial mixture

Substance: Cu2O
- % viable (Table 6, 0.5% elemental copper in deionized water): 12.08%
- % viable (Table 7, 0.05% elemental copper in deionized water): 19.70%
